The source of these data is ChEMBL document CHEMBL3797107, “Discovery of 5-(methylthio)pyrimidine derivatives as L858R/T790M mutant selective epidermal growth factor receptor (EGFR) inhibitors” (Bioorg Med Chem, 2016).

Each structure is given as a SMILES string.

The assay is filed under the species Homo sapiens. Nature of the assay: Selectivity index, ratio IC50 for wild-type EGFR (unknown origin) expressed in baculovirus expression system to IC50 for EGFR T790M/L858R mutant (unknown origin) expressed in baculovirus expression system.

`C=CC(=O)Nc1cccc(Oc2nc(Nc3ccc(N4CCN(S(C)(=O)=O)CC4)cc3OC)ncc2SC)c1`: the Ratio IC50 came to 100.
To `C=CC(=O)Nc1cccc(Oc2nc(Nc3ccc(N4CCN(C(=O)C(C)C)CC4)cc3OC)ncc2SC)c1` belongs 48.
Next, `C=CC(=O)Nc1cccc(Oc2nc(Nc3ccc(N4CCN(C(=O)C(F)(F)F)CC4)cc3OC)ncc2SC)c1`: 56; `C=CC(=O)Nc1cccc(Oc2nc(Nc3ccc(N4CCN(C)CC4)cc3OC)ncc2SC)c1`: 679.
For `C=CC(=O)Nc1cccc(Oc2nc(Nc3ccc(N4CCN(C(C)=O)CC4)cc3OC(F)F)ncc2SC)c1`, the Ratio IC50 is 14.
Next, `C=CC(=O)Nc1cccc(Oc2nc(Nc3ccc(N4CCN(C(=O)CC)CC4)cc3OC(F)F)ncc2SC)c1`: 13; `C=CC(=O)Nc1cccc(Oc2nc(Nc3ccc(N4CCN(C(C)=O)CC4)cc3OC)ncc2SC)c1`: 125; `C=CC(=O)Nc1cccc(Oc2nc(Nc3ccc(N4CCN(C(=O)C(C)(C)C)CC4)cc3OC)ncc2SC)c1`: 42.
